In patent publication US20090060875A1, “HCV Vaccines for Chronic HCV Patients” (INTERCELL AG, priority 2004, published 2009):

Conditions: clinical trials in healthy subjects and chronic HCV patients

With Poly-L-Arginine the Safety profile was “excellent safety profile”.
